From US9340590B2 (priority 2011, dated 2016)

Chains of the proteins cited; added tags and fusions are not shown.
UniProt Q15858, whole entry, looked up: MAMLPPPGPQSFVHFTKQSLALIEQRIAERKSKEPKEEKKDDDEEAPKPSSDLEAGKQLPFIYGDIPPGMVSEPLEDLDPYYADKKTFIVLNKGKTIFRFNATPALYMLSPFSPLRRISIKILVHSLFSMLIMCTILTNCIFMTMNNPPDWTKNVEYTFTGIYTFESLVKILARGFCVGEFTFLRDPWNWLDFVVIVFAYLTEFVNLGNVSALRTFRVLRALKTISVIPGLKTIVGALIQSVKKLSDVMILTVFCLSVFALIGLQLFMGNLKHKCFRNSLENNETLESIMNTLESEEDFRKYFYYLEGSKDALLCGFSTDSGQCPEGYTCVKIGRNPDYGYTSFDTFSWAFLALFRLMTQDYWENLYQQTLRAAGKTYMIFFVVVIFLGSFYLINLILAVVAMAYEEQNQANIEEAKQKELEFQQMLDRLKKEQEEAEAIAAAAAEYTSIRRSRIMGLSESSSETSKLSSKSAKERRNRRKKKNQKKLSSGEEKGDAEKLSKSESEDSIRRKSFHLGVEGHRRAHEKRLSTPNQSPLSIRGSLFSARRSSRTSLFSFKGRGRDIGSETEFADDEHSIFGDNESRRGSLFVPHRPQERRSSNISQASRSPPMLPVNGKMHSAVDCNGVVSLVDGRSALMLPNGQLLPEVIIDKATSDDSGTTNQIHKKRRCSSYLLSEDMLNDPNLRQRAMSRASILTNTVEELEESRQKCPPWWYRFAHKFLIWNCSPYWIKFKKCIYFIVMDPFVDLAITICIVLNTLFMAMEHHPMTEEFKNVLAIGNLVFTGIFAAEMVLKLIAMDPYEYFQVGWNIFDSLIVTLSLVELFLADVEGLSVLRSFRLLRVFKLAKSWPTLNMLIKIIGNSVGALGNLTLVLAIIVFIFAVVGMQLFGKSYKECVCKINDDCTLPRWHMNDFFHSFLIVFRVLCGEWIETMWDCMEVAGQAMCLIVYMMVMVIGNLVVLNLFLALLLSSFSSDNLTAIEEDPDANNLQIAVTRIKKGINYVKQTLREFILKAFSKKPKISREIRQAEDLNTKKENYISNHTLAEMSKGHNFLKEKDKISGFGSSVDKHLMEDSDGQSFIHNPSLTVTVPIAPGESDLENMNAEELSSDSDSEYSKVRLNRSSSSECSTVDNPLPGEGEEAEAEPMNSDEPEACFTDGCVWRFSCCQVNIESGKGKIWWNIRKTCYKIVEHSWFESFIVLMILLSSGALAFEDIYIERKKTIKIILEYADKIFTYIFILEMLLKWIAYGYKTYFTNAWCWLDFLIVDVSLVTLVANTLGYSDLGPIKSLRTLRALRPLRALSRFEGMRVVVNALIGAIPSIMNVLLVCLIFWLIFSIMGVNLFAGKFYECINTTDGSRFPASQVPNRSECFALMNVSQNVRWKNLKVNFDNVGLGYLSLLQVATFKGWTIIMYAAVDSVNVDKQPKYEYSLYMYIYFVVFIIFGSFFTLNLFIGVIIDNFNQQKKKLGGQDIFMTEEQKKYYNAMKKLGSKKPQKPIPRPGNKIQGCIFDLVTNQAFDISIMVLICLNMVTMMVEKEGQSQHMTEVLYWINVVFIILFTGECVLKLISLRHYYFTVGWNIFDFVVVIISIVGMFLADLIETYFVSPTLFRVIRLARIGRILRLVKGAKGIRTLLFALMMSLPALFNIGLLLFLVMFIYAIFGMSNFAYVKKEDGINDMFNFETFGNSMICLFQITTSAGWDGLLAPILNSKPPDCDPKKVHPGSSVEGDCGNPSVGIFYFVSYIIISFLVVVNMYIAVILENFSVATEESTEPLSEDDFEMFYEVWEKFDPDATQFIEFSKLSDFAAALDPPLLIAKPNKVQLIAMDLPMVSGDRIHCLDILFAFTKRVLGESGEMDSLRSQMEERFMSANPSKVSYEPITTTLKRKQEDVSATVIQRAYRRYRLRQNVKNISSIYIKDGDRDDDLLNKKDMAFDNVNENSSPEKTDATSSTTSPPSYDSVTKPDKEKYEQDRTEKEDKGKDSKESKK
UniProt Q9NY46, whole entry, looked up: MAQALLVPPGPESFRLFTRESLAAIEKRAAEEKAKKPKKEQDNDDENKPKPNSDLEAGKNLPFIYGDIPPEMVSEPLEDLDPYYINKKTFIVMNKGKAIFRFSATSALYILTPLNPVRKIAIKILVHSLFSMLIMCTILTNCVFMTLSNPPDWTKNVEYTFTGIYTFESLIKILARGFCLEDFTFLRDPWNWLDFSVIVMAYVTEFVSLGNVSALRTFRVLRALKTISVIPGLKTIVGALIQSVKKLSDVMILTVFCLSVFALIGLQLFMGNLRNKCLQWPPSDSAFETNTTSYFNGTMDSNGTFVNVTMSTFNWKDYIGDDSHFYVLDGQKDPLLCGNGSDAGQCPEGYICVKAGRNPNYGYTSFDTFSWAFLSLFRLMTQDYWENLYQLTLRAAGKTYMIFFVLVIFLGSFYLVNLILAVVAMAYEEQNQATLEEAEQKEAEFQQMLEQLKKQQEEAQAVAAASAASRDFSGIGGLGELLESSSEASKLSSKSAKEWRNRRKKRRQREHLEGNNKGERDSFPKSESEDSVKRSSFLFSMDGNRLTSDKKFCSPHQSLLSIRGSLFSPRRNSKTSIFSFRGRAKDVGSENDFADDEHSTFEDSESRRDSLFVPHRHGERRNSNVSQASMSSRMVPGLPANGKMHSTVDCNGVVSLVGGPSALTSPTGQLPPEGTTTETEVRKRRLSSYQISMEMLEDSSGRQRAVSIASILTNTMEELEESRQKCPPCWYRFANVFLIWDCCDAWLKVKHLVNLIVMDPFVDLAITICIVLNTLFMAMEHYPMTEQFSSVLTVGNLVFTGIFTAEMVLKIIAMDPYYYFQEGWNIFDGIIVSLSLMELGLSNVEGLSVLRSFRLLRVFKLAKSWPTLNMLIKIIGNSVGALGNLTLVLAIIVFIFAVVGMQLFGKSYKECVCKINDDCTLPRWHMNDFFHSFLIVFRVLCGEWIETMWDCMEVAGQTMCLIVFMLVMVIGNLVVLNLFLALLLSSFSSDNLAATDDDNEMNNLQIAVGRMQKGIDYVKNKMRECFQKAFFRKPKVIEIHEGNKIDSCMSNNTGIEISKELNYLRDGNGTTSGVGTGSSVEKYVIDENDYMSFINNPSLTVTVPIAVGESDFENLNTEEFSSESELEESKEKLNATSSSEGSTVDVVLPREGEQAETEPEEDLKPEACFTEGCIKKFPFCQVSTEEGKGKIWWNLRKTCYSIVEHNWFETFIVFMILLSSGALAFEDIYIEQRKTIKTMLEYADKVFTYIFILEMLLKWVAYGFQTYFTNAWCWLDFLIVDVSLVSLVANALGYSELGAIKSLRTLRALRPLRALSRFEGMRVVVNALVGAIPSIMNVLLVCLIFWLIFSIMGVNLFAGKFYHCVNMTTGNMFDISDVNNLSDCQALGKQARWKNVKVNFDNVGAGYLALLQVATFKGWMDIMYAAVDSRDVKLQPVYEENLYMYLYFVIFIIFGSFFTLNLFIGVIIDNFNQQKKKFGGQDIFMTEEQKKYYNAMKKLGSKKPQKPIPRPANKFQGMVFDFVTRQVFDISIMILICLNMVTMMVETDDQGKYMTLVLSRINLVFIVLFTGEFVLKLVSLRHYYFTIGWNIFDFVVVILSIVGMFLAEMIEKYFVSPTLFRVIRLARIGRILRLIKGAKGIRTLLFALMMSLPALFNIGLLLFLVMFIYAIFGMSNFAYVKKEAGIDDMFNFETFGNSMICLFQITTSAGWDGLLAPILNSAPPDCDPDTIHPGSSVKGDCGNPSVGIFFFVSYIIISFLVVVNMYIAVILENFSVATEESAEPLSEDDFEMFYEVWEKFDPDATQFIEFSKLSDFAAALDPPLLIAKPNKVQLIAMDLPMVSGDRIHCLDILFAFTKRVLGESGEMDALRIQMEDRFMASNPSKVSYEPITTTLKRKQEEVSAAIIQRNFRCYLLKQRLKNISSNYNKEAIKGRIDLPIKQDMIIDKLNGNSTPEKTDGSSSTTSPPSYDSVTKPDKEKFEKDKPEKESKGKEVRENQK

Tests used:
hNav1.7 = hNav1.7 (Homo sapiens, UniProt Q15858); assay: cell-based; assay type: cell-based; settings: Nav1.7 Use IC50
hNav1.3 = hNav1.3 (Homo sapiens, UniProt Q9NY46); assay: cell-based; settings: Nav1.3 Use IC50

CC[C@H](C)[C@@H]1NC(=O)[C@@H]2CSSC[C@@H]3NC(=O)[C@H](C(C)C)NC(=O)[C@H](CC(C)C)NC(=O)[C@H](CC(N)=O)NC(=O)[C@@H]4CCCN4C(=O)[C@H](CCCNC(=N)N)NC(=O)[C@H](CSSC[C@H](NC(=O)[C@@H](N)CC(=O)O)C(=O)N[C@@H](CC(C)C)C(=O)NCC(=O)N[C@@H](C)C(=O)N[C@@H](Cc4ccccc4)C(=O)N[C@@H](CCCNC(=N)N)C(=O)N[C@@H](CCCCN)C(=O)N2)NC(=O)[C@H](CSSC[C@@H](C(=O)N[C@@H](CCCCN)C(=O)N[C@@H](Cc2ccc(O)cc2)C(=O)N[C@H](C(=O)N[C@@H](Cc2ccccc2)C(N)=O)C(C)C)NC(=O)[C@H](Cc2c[nH]c4ccccc24)NC(=O)[C@H](CCCCN)NC(=O)[C@H](Cc2cnc[nH]2)NC(=O)[C@H]([C@@H](C)O)NC(=O)[C@H](CCCNC(=N)N)NC(=O)[C@H](CO)NC3=O)NC(=O)[C@H](CCCCN)NC(=O)[C@H](CC(=O)O)NC(=O)[C@H](CC(N)=O)NC(=O)[C@H](CC(=O)O)NC(=O)[C@@H]2CCCN2C1=O [[Ala5;Phe6]GpTx-1(1-34)]
IC50 (hNav1.7): 0.012 µM
IC50 (hNav1.3): 0.022 µM
